According to PubChem BioAssay AID1469 (National Center for Advancing Translational Sciences (NCATS), 2008):
Values joined by “and” are separate entries in the source; they are usually repeats but may differ in a detail not shown here. Identical values can stand only once. The entries are a selection whose mix differs from that of the whole data set. Active and inactive are the calls of the source. Calls come from the whole dose curve; as a rule, active = well fitted inhibition curve with a large enough effect; inconclusive = small, poorly fitted or top-dose-only effect, or effect the other way; inactive = flat fitted curve, though single readings scatter.

Sequences of proteins named here, by UniProt entry; tags and fusion partners are left off. A change or cut given only in a name is not applied to a line headed by its entry.
UniProt P10828: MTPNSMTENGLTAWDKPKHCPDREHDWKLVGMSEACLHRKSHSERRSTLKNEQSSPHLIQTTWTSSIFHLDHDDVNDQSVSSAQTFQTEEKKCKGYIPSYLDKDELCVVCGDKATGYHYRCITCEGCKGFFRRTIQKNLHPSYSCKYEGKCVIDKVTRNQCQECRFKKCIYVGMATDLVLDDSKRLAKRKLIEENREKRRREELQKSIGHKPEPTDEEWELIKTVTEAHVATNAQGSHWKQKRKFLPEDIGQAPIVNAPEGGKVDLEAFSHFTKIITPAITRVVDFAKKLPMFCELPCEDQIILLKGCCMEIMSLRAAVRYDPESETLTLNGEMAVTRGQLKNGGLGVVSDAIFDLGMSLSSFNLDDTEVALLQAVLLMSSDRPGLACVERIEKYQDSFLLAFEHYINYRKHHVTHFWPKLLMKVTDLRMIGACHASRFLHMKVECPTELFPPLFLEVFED

Target: Thyroid hormone receptor beta (Homo sapiens) (UniProt P10828)
Test: qHTS for Inhibitors of the Interaction of Thyroid Hormone Receptor and Steroid Receptor Coregulator 2;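 note: plate controls were bound peptide for no effect and peptide without receptor for full effect; nearly all actives have a fitted effect of over 50% in size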
Details: TRbeta-SRC2 peptide binding, fluorescence polarization, receptor liganded with 1 µM T3
From the text: NIH Molecular Libraries Probe Production Network [MLPCN]
NIH Chemical Genomics Center [NCGC]
Assay Provider: R. Kip Guy, St. Jude Children's Research Hospital
Thyroid receptor (TR) regulates many homeostatic processes including basal metabolism, cardiovascular function, body weight, and lipid trafficking. TR modulators are potential therapeutics for obesity and hyperlipidemias but current thyroid analogs have undesirable side effects, particularly cardiac stimulation. To identify inhibitors that specifically prevent the interaction of TR with the steroid receptor coregulator 2 (SRC2), a fluorescence polarization assay was screened. This assay detects interaction of the ligand-binding domain of human TRb with a Texas Red labeled SRC2 peptide, corresponding to a 20 amino acid region of the nuclear receptor interaction domain (Arnold et al., 2006). Small molecule inhibitors that block the interaction of TR and SRC2 are detected by a decrease in fluorescence polarization.
Arnold, L. A.; Estebanez-Perpina, E.; Togashi, M.; Shelat, A.; Ocasio, C. A.; McReynolds, A. C.; Nguyen, P.; Baxter, J. D.; Fletterick, R. J.; Webb, P.; Guy, R. K. A high-throughput screening method to identify small molecule inhibitors of thyroid hormone receptor coactivator binding. Sci STKE 2006, p 13.
NCGC Assay Protocol Summary:
For screening, 5 uL/well 0.6 uM TRb and 20 nM SRC2 Texas Red in protein buffer (20mM Tris hydrochloride, 100mM NaCl, 10% glycerol, 1mM EDTA, 0.01% NP-40, 1mM DTT, 1uM T3 and 5% DMSO) was dispensed into black solid 1536-well plates (Grenier) using a solenoid-based dispenser. Following transfer of 23 nL compound or DMSO vehicle by a pin tool, the plates were centrifuged 15 s at 1000 RPM and incubated 5 hr at ambient temperature. […] Data were normalized to unbound (all components except TRb) and bound SRC2 Texas Red controls. In this assay, we provide % activity data for each concentration as well as potencies for the active compounds.
Keywords: NIH Roadmap, MLPCN, MLI, MLSMR, qHTS, NCGC, qHTS, thyroid hormone receptor, steroid receptor coactivator, fluorescence polarization

[1] = at 106 µM (top of the series) unless noted

O=P1(Nc2ncccn2)COc2ccccc2OC1
activity change, negative = inhibition [1]: inactive: -17.8%

Nc1cccc([As](=O)(O)c2ccccc2)c1
activity change, negative = inhibition [1]: inactive: -1.05%

O=[As](O)(c1cccs1)c1cccs1
activity change, negative = inhibition [1]: inactive: -1.36%

O=P1(Nc2ccc(Br)cn2)COc2ccccc2OC1
activity change, negative = inhibition [1]: inactive: 15.5%

Cc1nn(-c2ccccc2)c2c1P(=O)(N1CCOCC1)N(C)C(c1ccccc1)=N2 (stereo unspecified)
activity change, negative = inhibition [1]: inactive: 0.181%

CC1CCC(C(C)C)C(OP(=O)(Nc2ccccn2)c2ccccc2)C1 (stereo unspecified)
activity change, negative = inhibition [1]: inactive: 4.88%

CN(C)C1(CNC(=O)c2ccc(S(C)(=O)=O)cc2)CCCCC1
activity change, negative = inhibition [1]: inactive: -0.284%

CC(C)/C=N\N=C(\N)N[N+](=O)[O-]
activity change, negative = inhibition [1]: inactive: 2.59%

O=[As](O)(c1ccccc1Br)c1ccccc1Br
activity change, negative = inhibition [1]: inactive: 1.66%

O=P1(Nc2ccccn2)COc2ccccc2OC1
activity change, negative = inhibition [1]: inactive: -5.73%

CCOP(=O)(Nc1ccc(C)cn1)OCC
activity change, negative = inhibition [1]: inactive: 4.17%

Clc1n[nH]nc1-c1nn[nH][15n]1
activity change, negative = inhibition [1]: inactive: -3.57%

CC(C)(C)C(=O)NC(Sc1ncccn1)C(Cl)(Cl)Cl (stereo unspecified)
activity change, negative = inhibition [1]: inactive: 2.26%

COP(=S)(Cl)OC
activity change, negative = inhibition [1]: inactive: -1.75% [at 201 µM]

Nc1cccc2c([As](=O)(O)O)cccc12
activity change, negative = inhibition [1]: inactive: -13%

Cc1ccc(NCCc2c([N+](=O)[O-])cc([N+](=O)[O-])cc2[N+](=O)[O-])cc1
activity change, negative = inhibition [1]: inactive: 6.26%

CCCOP(=S)(Nc1nc(N)cc(=O)[nH]1)OCCC
activity change, negative = inhibition [1]: inactive: -3.06%

COc1cc(C2NCCC3(OCCO3)C2(C)C)cc(OC)c1OC (stereo unspecified)
activity change, negative = inhibition [1]: inactive: 0.686%

CCOP(=O)(Nc1cccc2ccccc12)OCC
activity change, negative = inhibition [1]: inactive: -8.37%

O=C(OC1CN2CCC1CC2)c1ccc(Cl)cc1 (stereo unspecified)
activity change, negative = inhibition [1]: inactive: 1.03%

CN(C(=O)Cc1ccc(Cl)c(Cl)c1)[C@@H]1CC[C@]2(CCCO2)C[C@H]1N1CCCC1
activity change, negative = inhibition [1]: inactive: 4.76% and inactive: -4.19%

O=[As](O)(O)c1cccnc1
activity change, negative = inhibition [1]: inactive: -4.35%

COc1cc(C(=O)NCC2(N3CCOCC3)CCCCC2)cc(Cl)c1OC(C)C
activity change, negative = inhibition [1]: inactive: 3.42%

O=[As](O)(c1cccc(O)c1)c1cccc(O)c1
activity change, negative = inhibition [1]: inactive: 6.06%

ClP(Cl)c1ccccc1
activity change, negative = inhibition [1]: inactive: -2.71% [at 201 µM]

NC(=O)Nc1ccc([As](=O)(O)O)cc1
activity change, negative = inhibition (at 53 µM (top of the series)): inactive: -0.331%
activity change, negative = inhibition (at 106 µM (top of the series)): inactive: 7.79% and inactive: 5.02%

O=[N+]([O-])CC(O)c1ccc([N+](=O)[O-])cc1 (stereo unspecified)
activity change, negative = inhibition [1]: inactive: 7.6%

CN(C(=O)Cc1ccccc1)[C@@H]1CC[C@]2(CCCO2)C[C@H]1N1CCCC1
activity change, negative = inhibition [1]: inactive: 3.61% and inactive: -9.51%

CCOP1(=S)c2c(C)nn(CCC#N)c2N=C(c2ccc(F)cc2)N1C (stereo unspecified)
activity change, negative = inhibition [1]: inactive: 9.34%

O=[N+]([O-])c1ccc2c(c1)nnn2O
activity change, negative = inhibition [1]: inactive: 0.524%

CCOP1(=S)c2c(C)nn(CCC#N)c2N=C(c2ccccc2F)N1C (stereo unspecified)
activity change, negative = inhibition [1]: inactive: -0.125%

O=P(Nc1nccs1)(Oc1ccccc1)Oc1ccccc1
activity change, negative = inhibition [1]: inactive: -1.03%

O=P(Nc1nccs1)(c1ccccc1)c1nc2ccccc2s1 (stereo unspecified)
activity change, negative = inhibition [1]: inactive: 1.17%

CS(=O)(=O)c1cc([N+](=O)[O-])c2no[n+]([O-])c2c1
activity change, negative = inhibition [1]: inactive: 0.54%

Nc1ccccc1[As](=O)(O)c1ccccc1
activity change, negative = inhibition [1]: inactive: 0.0225%

O=C(O)COc1ccc([As](=O)(O)O)cc1[N+](=O)[O-]
activity change, negative = inhibition [1]: inactive: -1.15%

ClCCSc1nnc(-c2cccnc2)o1
activity change, negative = inhibition [1]: inactive: -10.4%

CC(C)c1ccc(OP(=O)(Nc2ccccn2)Oc2ccccc2F)cc1 (stereo unspecified)
activity change, negative = inhibition [1]: inactive: -2.51%

CC(C)NC(=O)NP(=O)(Oc1ccccc1)Oc1ccccc1
activity change, negative = inhibition [1]: inactive: 0.661%

CCN(CC)C(=S)SC(NC=O)C(Cl)(Cl)Cl (stereo unspecified)
activity change, negative = inhibition [1]: inactive: 0.74%

O=[N+]([O-])c1cc([N+](=O)[O-])c(-c2ccn[nH]2)s1
activity change, negative = inhibition [1]: inactive: 5.1%

C[As](=O)(O)c1cccc(C(=O)O)c1
activity change, negative = inhibition [1]: inactive: -6.75%

O=[As](O)(c1ccc(O)cc1)c1ccccc1O
activity change, negative = inhibition [1]: inactive: 13.9%

Cc1ccc(OP(=O)(Nc2ccc([N+](=O)[O-])cn2)Oc2ccc(C)cc2)cc1
activity change, negative = inhibition [1]: inactive: -3.59%

Cc1ccc2nc3c(c(C)c2c1)CC(C(Cl)Cl)S3 (stereo unspecified)
activity change, negative = inhibition [1]: inactive: 0.299%

COc1ccc(N/C(=N/P(=O)(N2CCOCC2)N2CCOCC2)N2CCOCC2)cc1
activity change, negative = inhibition [1]: inactive: -7.92%

Cc1c2c(nc3ccccc13)SC(C(Cl)Cl)C2 (stereo unspecified)
activity change, negative = inhibition [1]: inactive: -15%

O=C(OC1CN2CCC1CC2)C12CC3CC(CC(C3)C1)C2 (stereo unspecified)
activity change, negative = inhibition [1]: inactive: 1.93%

Cc1cc(=O)[nH]c(N[N+](=O)[O-])n1
activity change, negative = inhibition [1]: inactive: 2.16%

COc1ccc2nc(NP(=O)(c3ccccc3)c3ccccc3)sc2c1
activity change, negative = inhibition [1]: inactive: -6.58%
